Test results published in IntAct's records for PubMed 23242214.

B1: Shugoshin 1 (Homo sapiens), Q5FBB7 (parent)
chain: MAKERCLKKSFQDSLEDIKKRMKEKRNKNLAEIGKRRSFIAAPCQIITNTSTLLKNYQDNNKMLVLALENEKSKVKEAQDIILQLRKECYYLTCQLYALKGKLTSQQTVEPAQNQEICSSGMDPNSDDSSRNLFVKDLPQIPLEETELPGQGESFQIEDQIPTIPQDTLGVDFDSGEAKSTDNVLPRTVSVRSSLKKHCNSICQFDSLDDFETSHLAGKSFEFERVGFLDPLVNMHIPENVQHNACQWSKDQVNLSPKLIQPGTFTKTKEDILESKSEQTKSKQRDTQERKREEKRKANRRKSKRMSKYKENKSENKKTVPQKKMHKSVSSNDAYNFNLEEGVHLTPFRQKVSNDSNREENNESEVSLCESSGSGDDSDDLYLPTCKYIQNPTSNSDRPVTRPLAKRALKYTDEKETEGSKPTKTPTTTPPETQQSPHLSLKDITNVSLYPVVKIRRLSLSPKKNKASPAVALPKRRCTASVNYKEPTLASKLRRGDPFTDLCFLNSPIFKQKKDLRRSKKRALEVSPAKEAIFILYYVREFVSRFPDCRKCKLETHICLR
partner: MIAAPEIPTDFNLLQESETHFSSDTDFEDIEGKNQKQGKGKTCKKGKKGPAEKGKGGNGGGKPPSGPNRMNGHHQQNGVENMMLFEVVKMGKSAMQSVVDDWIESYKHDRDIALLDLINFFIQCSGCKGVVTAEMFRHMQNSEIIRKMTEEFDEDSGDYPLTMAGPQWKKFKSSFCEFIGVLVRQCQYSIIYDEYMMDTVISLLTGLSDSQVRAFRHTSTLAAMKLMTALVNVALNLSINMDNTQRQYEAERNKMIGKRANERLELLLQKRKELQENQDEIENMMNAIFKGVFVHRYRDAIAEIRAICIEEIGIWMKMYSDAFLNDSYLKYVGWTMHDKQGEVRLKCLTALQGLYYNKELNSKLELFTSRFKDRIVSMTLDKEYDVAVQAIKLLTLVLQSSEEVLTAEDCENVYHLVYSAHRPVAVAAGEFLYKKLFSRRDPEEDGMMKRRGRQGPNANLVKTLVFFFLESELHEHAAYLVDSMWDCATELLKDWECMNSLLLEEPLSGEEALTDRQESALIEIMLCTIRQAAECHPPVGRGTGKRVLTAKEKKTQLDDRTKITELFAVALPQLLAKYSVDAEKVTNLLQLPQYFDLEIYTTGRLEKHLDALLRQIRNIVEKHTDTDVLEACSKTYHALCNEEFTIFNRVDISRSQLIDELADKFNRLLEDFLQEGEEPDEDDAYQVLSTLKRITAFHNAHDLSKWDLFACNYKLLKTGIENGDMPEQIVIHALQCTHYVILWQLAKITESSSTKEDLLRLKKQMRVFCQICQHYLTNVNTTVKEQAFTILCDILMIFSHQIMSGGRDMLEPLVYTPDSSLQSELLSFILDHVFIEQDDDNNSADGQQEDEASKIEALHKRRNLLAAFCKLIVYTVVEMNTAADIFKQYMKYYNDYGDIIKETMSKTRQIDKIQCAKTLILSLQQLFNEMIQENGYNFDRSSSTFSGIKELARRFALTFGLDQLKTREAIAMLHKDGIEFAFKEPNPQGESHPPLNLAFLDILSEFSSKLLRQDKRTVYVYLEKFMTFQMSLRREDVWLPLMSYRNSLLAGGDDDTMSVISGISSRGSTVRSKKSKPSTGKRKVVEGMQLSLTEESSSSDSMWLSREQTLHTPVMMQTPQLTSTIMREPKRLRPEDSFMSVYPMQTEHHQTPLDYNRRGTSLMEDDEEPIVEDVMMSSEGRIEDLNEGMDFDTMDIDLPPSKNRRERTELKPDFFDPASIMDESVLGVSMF
B2: Shugoshin 1 (Homo sapiens), Q5FBB7 (parent)
chain: B1 chain
partner: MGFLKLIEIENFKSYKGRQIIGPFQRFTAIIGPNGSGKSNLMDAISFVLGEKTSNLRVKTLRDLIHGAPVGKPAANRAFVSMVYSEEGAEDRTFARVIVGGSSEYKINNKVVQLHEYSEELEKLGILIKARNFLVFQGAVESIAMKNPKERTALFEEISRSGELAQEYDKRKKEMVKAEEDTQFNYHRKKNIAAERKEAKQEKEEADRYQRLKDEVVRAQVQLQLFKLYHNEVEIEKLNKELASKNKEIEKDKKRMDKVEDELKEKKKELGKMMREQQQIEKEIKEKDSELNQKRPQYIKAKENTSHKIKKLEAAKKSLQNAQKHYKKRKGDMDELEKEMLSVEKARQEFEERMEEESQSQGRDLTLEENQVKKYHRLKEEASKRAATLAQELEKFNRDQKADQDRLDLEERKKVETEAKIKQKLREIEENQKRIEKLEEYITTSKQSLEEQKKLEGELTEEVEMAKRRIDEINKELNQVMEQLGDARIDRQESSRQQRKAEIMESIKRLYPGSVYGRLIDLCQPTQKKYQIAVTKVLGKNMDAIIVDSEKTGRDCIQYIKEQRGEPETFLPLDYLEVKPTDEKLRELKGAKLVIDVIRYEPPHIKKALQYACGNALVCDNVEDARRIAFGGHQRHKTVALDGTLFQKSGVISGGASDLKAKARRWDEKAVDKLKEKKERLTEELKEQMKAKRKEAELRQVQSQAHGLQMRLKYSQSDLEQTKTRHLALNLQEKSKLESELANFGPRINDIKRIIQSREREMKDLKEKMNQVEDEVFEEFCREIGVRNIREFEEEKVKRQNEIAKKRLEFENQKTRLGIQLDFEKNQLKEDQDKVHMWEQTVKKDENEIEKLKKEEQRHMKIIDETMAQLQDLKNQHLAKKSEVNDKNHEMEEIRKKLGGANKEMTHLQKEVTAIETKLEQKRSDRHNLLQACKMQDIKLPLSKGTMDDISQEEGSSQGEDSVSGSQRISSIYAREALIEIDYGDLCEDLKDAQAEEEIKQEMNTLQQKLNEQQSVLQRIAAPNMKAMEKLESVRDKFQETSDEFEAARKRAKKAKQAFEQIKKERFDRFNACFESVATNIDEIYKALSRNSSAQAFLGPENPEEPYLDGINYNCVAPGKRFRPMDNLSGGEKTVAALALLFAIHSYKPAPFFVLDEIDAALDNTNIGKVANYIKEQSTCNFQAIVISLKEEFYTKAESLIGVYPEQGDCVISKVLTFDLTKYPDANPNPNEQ

Variants of: B1
Conditions: with stag2_human STAG2, Q8N3U4

Variant | effect of a mutation on the interaction
T346A | decreasing interaction strength

Variants of: B1
Conditions: with stag2_human STAG2, Q8N3U4
Remark: another data set of the same source

Variant | effect of a mutation on the interaction
T346A | disrupting interaction strength

Variants of: B2
Conditions: with smc1a_human SMC1A

Variant | effect of a mutation on the interaction
T346A | disrupting interaction strength
